Experimental findings from patent publication EP0695544B1, “Hard gelatin capsules resistant to denaturation and the production thereof” (SHIONOGI & CO., LTD., priority 1994, dated 1996) are described below.

For this data set the following is noted: capsule shells stored without contact over 95 parts PEG 6000 + 5 parts scavenger, 60°C for a week; 2nd solution of JP12 (37 °C), observed after 5 to 6 minutes.

“Also recorded” adds a separate entry of the source.

As for `O=S([O-])[O-].[Na+].[Na+]` [sodium sulfite], the Solubility result is recorded as “completely prevented the decrease of the solubility; also recorded: soluble rapidly”.
